How the values were obtained:
[1] = test system: adult guinea pig LVCMs; assay: Whole-cell patch-clamp of adenovirus-transduced adult guinea pig LVCMs; assay type: cell-based
[2] = test system: ACMs; assay: Whole-cell patch-clamp of […]-transduced guinea pig ACMs; assay type: cell-based; details: after 3 mM Ba^2+, spontaneously firing HCN-ΔΔΔ-transduced ACMs
[3] = Table 1, Spontaneously firing cells

BaCl2
block of IK1 ([1]; 1 mmol/L Ba^2+, control LVCMs): completely blocked
spontaneous firing slower than that of genuine guinea pig nodal cells ([1]; 1 mmol/L Ba^2+, control ventricular cell): ≈ 2.5 fold
APD50 [1, 3]: 296 ± 34 ms
MDP [1, 3]: −46.3 ± 2.6 mV
Pacing Rate [1, 3]: 92 ± 15 bpm
Phase 4 Length [1, 3]: 465 ± 118 ms
Phase 4 Slope [1, 3]: 46.2 ± 7.6 mV/s
RMP [2]: −0.8±0.2 mV

— patent US20080089874A1, “DIRECTED DIFFERENTIATION AND MATURATION OF STEM CELL-DERIVED CARDIOMYOCYTES” (The Regents of the University of California, priority 2006, published 2008)
